Article PMC4138078, “Chemically Modified Peptide Scaffolds Target the CFTR-Associated Ligand PDZ Domain” (PLoS ONE, 2014)

Key:
Assay in all cases: FP
iCAL36 P-3 Ac-K = biological target: iCAL36 P-3 Ac-K
iCAL36 P-1 FB-K = biological target: iCAL36 P-1 FB-K
iCAL36 P-1 Ac-K = biological target: iCAL36 P-1 Ac-K
iCAL36 P-1 BB-K = biological target: iCAL36 P-1 BB-K
iCAL36 P-1 Tfa-K = biological target: iCAL36 P-1 Tfa-K
iCAL36 P-5 Ac-K = biological target: iCAL36 P-5 Ac-K
iCAL36 = conditions: cited from earlier work
iCAL36 P-4 Ac-K = biological target: iCAL36 P-4 Ac-K

Q: Which results are given for “CAL (CFTR-associated ligand) PDZ (from UniProt Q9HD26)”?
A: Ki (iCAL36 P-3 Ac-K): 180 µM; Ki (iCAL36 P-1 FB-K): 11.4 µM; Ki (iCAL36 P-1 Ac-K): 14.9 µM; Ki (iCAL36 P-1 BB-K): 11.1 µM; Ki (iCAL36 P-1 Tfa-K): 14.1 µM; Ki (iCAL36 P-5 Ac-K): 550 µM; Ki (iCAL36): 22.6 µM; Ki (iCAL36 P-4 Ac-K): 32.3 µM
